Among the data in US20190169140A1, “IDO1 INHIBITOR AND PREPARATION METHOD AND APPLICATION THEREOF” (SHANDONG LUYE PHARMACEUTICAL CO., LTD., priority 2016, published 2019) are IC50 values, retold here.

The chains behind the UniProt entries cited, without tags or fusion partners.
UniProt P14902, whole entry: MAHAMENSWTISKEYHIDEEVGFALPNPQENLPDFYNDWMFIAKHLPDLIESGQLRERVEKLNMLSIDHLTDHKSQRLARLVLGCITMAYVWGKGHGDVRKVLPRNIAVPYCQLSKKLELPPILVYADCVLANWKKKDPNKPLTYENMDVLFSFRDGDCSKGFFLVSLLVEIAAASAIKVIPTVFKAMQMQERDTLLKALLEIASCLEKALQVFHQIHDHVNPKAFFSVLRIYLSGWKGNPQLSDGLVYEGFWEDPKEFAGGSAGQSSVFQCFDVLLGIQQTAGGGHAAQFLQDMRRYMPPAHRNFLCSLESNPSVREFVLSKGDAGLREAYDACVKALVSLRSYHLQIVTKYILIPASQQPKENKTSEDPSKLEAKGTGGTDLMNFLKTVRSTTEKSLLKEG

One may read the IC50 as the concentration at which inhibition is half-maximal.

This assay concerns the target recombinant human IDO1 enzyme (Homo sapiens, UniProt P14902). In words: Test of hIDO1 for enzymatic activity in vitro (NFK Green fluorescence). The conditions noted are these: read-out: Enzyme IC50. As for the experimental part: 1. Test of hIDO1 for Enzymatic Activity In Vitro
1.1 Purpose of Experiment:
Changes in production of NFK, an IDO1 enzymatic metabolite were detected with NFK Green™ fluorescent molecules. With an IC50 value of a compound as an index, an inhibitory effect of the compound on recombinant human IDO1 enzyme was evaluated.
The compound was diluted with dimethyl sulfoxide (DMSO) to 1 mM, with 10 gradients, each 3-fold dilution, in duplicate. 48 μL of 50 mM phosphate buffer, having pH of 6.5, was transferred by the Bravo automatic liquid processing platform to the compound plate. Then 2 μL of an already diluted compound/DMSO solution was added. After even mixing, 10 μL of the resultant mixture was transferred to the enzymatic reaction plate.
IDO1 enzyme was diluted to 20 nM in a reaction buffer (50 mM phosphate buffer with pH of 6.5, 0.1% of Tween-20, 2% of glycerol, 20 mM ascorbic acid, 20 μg/ml catalase, and 20 μM methylene blue), 20 μL of the diluted IDO1 enzyme was transferred to the enzymatic reaction plate, and incubated at 23° C. for 30 minutes. 10 μL of 400 μM L-type tryptophan substrate was added to start reaction. The incubation lasted at 23° C. for 90 minutes. 10 μL of NFK Green™ fluorescent dye was added. […] After incubation at 37° C. for 4 hours, an Envision multi-functional plate reader was used for reading (Ex 400 nm/Em 510 nm). […]

For the molecule `C=CCNC(=S)NCCOc1nonc1C(=NO)Nc1ccc(F)c(Br)c1`, the IC50 was determined as 3.08 µM.
